# According to patent US20090005437A1, “Alpha-Ketoglutarates and Their Use as Therapeutic Agents” (priority 2004, published 2009):
# Tests used:
# [1] = system: cells with dysfunctional SDH activity; settings: cells grown continuously with TTFA, medium with excess pyruvate and uridine
# HCT116 cells = settings: spheroids, 1 mM, 24 hours
# [2] = system: PHD (HIFα prolyl hydroxylase); assay: In vitro PHD activity (hydroxylation of in vitro-translated HA-ODDD by cell extracts, gel shift on SDS-PAGE); assay type: biochemical, human
# HEK293 cells = assay: Measurement of intracellular α-ketoglutarate (glutamate dehydrogenase assay); assay type: cell-based, human; settings: 1 mM, 5 hours, 48 hours after transfection
Compound,Cell death (viability by MTT) in cells with dysfunctional SDH activity [1],Growth of spheres in three dimensions (HCT116 cells),Hydroxylation of HA-ODD [2],Rise in intracellular α-ketoglutarate in SDH-deficient (Di3) cells relative to rise in scrambled control-transfected cells (HEK293 cells)
"O=C(O)CCC(=O)C(=O)OCc1cccc(C(F)(F)F)c1 [TFMB-α-ketoglutarate, 2-Oxopentanedioic acid 1-(3-trifluoromethyl-benzyl)ester]",significant death,inability of cells to sustain growth in three dimensions,,
"O=C(O)CCC(=O)C(=O)O [free α-ketoglutaric acid, 2-Oxo-pentanedioic acid, reference compound]",,,near maximal hydroxylation of HA-ODD,
"CCCCCCCCOC(=O)C(=O)CCC(=O)O [octyl-α-ketoglutarate, 2-Oxo-pentanedioic acid 1-octyl ester]",significant death,inability of cells to sustain growth in three dimensions,,two-fold rise
